Counter-ions that a name gives are not always drawn.

A short description of this data set: Eribulin mesylate blood plasma and tumor tissue PK in LOX cancer-bearing mice (Embodiment 11). It is filed as in vivo. The note with it: female, NU/NU nude, mouse, intravenous, tumor tissue, 1.0 mg/kg into caudal vein, read-out: TPI (mL/g). The procedure:
A blood sample was taken and tumor tissue extraction was carried out with a cardiac puncture at fixed periods after administration (15 minutes, 30 minutes, 1, 2, 4, 8, 12, 24, 36, and 48 hours) (n=3). The blood was sampled in a test tube containing heparin, and within 30 minutes of the sampling, the blood was separated by centrifuging at 1,500×g for 10 minutes at 4° C. to obtain the blood plasma. All of the tumor tissue was extracted, washed with PBS, and wiped with water-absorbent paper, and then the tissue weight was immediately weighed. The tissue was placed in a test tube and cooled in ice water, and then stored at −80° C. until analysis was carried out.
The PK parameters were calculated using non-compartment model analysis software (WinNonlin version 5.0.1).

In the case of `C=C1C[C@@H]2CC[C@@]34C[C@H]5O[C@H]6[C@@H](O3)[C@H]3O[C@H](CC[C@@H]3O[C@H]6[C@H]5O4)CC(=O)C[C@@H]3[C@@H](OC)[C@@H](C[C@H](O)CN)O[C@H]3C[C@H]3O[C@@H](CC[C@@H]1O2)C[C@@H](C)C3=C` [eribulin mesylate], the Kp came to 17.2.

The values are drawn from patent US9968583B2, “Method of manufacture of liposome composition” (EISAI R & D MANAGEMENT CO., LTD., priority 2009, dated 2018).
